Assay [1] has as its target cation-independent mannose-6-phosphate receptor (CIMPR), immobilised on an affinity column or coated on plates. In words: CIMPR affinity chromatography of purified ATB200 from different production batches (FIG. 5).
Assay [2] has the same target. In words: CIMPR affinity chromatography of ATB200 rhGAA made with AEX capture (Embodiment 2). Bound material was eluted with free M6P (gradient to about 1 mM, then a step to about 5 mM). Fractions were read as GAA activity (F460).
Assay [3] deals with cellular receptors on normal and Pompe fibroblast cell lines (UniProt P11717).
In assay [4] the target is cation-independent mannose-6-phosphate receptor (CIMPR), immobilised on an affinity column or coated on plates. In words: CIMPR affinity chromatography of ATB200 rhGAA made without AEX capture (Embodiment 1). This is the flow-through peak before M6P was added. Fractions were read as GAA activity (F460).
Assay [5] shares this target. In words: M6P receptor (CIMPR) plate binding assay.
Assay [6] has the same target. In words: CIMPR affinity chromatography of ATB200 rhGAA made without AEX capture (Embodiment 1). Bound material was eluted with free M6P (gradient to about 1 mM, then a step to about 5 mM). Fractions were read as GAA activity (F460).
For assay [7] the target is unchanged. In words: CIMPR affinity chromatography of ATB200 rhGAA made with AEX capture (Embodiment 2). This is the flow-through peak before M6P was added. Fractions were read as GAA activity (F460).
The target is the same in assay [8]. In words: CIMPR affinity column, same condition as for MYOZYME and LUMIZYME (FIG. 5).
In assay [9] the target is cellular receptors on normal and Pompe fibroblast cell lines (UniProt P11717). In words: cell-based or functional assay.
The target of assay [10] is cation-independent mannose-6-phosphate receptor (CIMPR), immobilised on an affinity column or coated on plates. In words: CIMPR affinity column, flow through against M6P-eluted fraction, by GAA activity.

In assay [1], “ATB200 recombinant human acid α-glucosidase (rhGAA) (from UniProt P10253 70-952) (enzyme)” showed a CIMPR receptor binding (percent of rhGAA bound) greater than 70%. For the same substance, the results for the percent of total GAA activity bound to the CIMPR column and eluted with M6P in [2] and in [6] were 92% and 70%, respectively. In [3], this substance displayed a Kuptake, Pompe fibroblasts of 3 nM. Besides, the Kuptake, normal fibroblasts in [3] amounted to 2 nM. For the same substance, the values for the percent of total GAA activity in the flow-through (not bound to the CIMPR column) in assay [4] and in assay [7] were 30% and 8%, respectively. The same substance returned a dissociation constant Kd in assay [5] of 2 to 4 nM. In assay [8], the percent of rhGAA bound is greater than 70%. The substance also gave a concentration that saturates cellular receptors (uptake into fibroblasts, internalized GAA activity) in [9] of 20 nM.

In assay [3], “LUMIZYME® (alglucosidase alfa, conventional rhGAA product) (from UniProt P10253 57-952) (enzyme)” displayed a Kuptake, Pompe fibroblasts of 57 nM and a Kuptake, normal fibroblasts of 56 nM. Also, in assay [10], the percent of rhGAA that did not bind was found to be 78% and the percent of rhGAA with M6P that can target it to the CIMPR (bound fraction) came out at 22%. Further, in assay [9], the concentration that saturates cellular receptors (uptake into fibroblasts, internalized GAA activity) turned out to be 250 nM and the uptake efficiency constant (Kuptake) turned out to be 56 nM.

As to “MYOZYME® (alglucosidase alfa, conventional rhGAA product) (from UniProt P10253 57-952) (enzyme)”, in [10], the percent of rhGAA that did not bind is 73% and the percent of rhGAA with M6P that can target it to the CIMPR (bound fraction) amounted to 27%.

(Values after patent US20260207717A1, “METHODS FOR TREATING INFANTILE-ONSET POMPE DISEASE IN PEDIATRIC PATIENTS” (Amicus Therapeutics, Inc., priority 2022, published 2026).)
